Yeast mating assay 1: variants of the scFv Ab-14

Data: MIT Lincoln Laboratory AlphaSeq set, Engelhart et al. 2022, doi:10.1038/s41597-022-01779-4, as distributed in FLAb.

Target peptide (SARS-CoV-2 spike, HR2 region): PDVDLGDISGINAS

Parent scFv Ab-14: VH joined to VL by a 15-residue (Gly4Ser)3 linker. Changes lie in the light chain CDRs alone.
VH: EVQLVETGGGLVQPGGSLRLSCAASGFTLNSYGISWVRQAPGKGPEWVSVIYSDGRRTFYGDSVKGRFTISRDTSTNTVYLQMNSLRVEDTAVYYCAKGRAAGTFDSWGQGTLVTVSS
VL: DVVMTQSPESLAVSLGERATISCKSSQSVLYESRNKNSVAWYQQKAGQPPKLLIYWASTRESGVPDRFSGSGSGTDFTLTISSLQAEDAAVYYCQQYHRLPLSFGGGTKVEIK

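Phage display of a naive human antibody library on the peptide gave the parent. Library AAYL50 holds single substitutions and randomly drawn double and triple substitutions in the CDRs. AlphaSeq pools MATa yeast showing the antibodies with MATalpha yeast showing the peptide. Pairs that bind mate more often; barcode pairs of the diploids are counted by sequencing. Read counts were normalised to the haploid input and turned into Kd by a linear fit to BCL2-family pairs of known affinity, for each replicate. Mating was done three times.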

Positions count from residue 1 of the parent VL; N37C puts C in place of N.
Scale: log10 of Kd in nM, estimated from mating counts; low values are strong binders.
A mean of the replicates is given; it leaves out those without a signal.
A pair that was not seen in that replicate is written "nd"; this usually means weak binding, but a binder can also be missed.
Three control strains display no target. For library AAYL50, 18% of the pairings with them gave a signal, with a median of 4.19 and one signal in twenty below 2.99, so weak values seen in few replicates may be background. For each scFv, signals with the empty controls are counted beside the result, with their mean in brackets.
Parent in this assay: reference entry 0.65, copy in this library 1.68.

changes,"replicates, log10 nM","log10 Kd (nM), mean",control signals
N37C S58K H98K,2.64 2.37 3.01,2.67,4/9 (4.31)
A57M L100I L102P,3.67 3.10 4.35,3.71,8/9 (4.14)
P101N L102N S103W,nd nd 6.11,6.11,3/9 (4.54)
V39D Q96V P101F,3.62 nd 4.27,3.95,0/9
R34T K36L R99F,0.95 0.97 1.03,0.98,3/9 (5.27)
S25R W56T Q95N,nd nd nd,nd,2/9 (4.98)
N35V S58F L100W,nd 4.32 6.17,5.24,5/9 (4.41)
S25L V39G R99A,4.38 3.60 nd,3.99,2/9 (4.75)
R34L S38H R60M,nd nd nd,nd,0/9
E32F V39E S103M,4.62 3.70 3.82,4.05,6/9 (4.51)
E61A P101Q,1.56 1.52 1.73,1.60,1/9 (4.17)
K24F S28P W56C,2.56 2.21 2.22,2.33,1/9 (3.92)
W56R S103Y,1.52 1.51 1.75,1.59,4/9 (3.97)
K24Q S25I Q95E,0.25 0.55 0.29,0.37,1/9 (2.92)
K36W S103R,nd 4.13 nd,4.13,0/9
S25F Y31M R60S,1.76 1.66 1.90,1.78,2/9 (3.94)
S38L W56A H98W,2.07 1.47 1.90,1.82,0/9
V29F Y97A P101T,nd 3.83 4.71,4.27,2/9 (4.49)
S28V S38T R60E,nd nd nd,nd,1/9 (3.97)
K24T V29T Q96P,nd nd nd,nd,3/9 (3.64)
S25M R60E L100G,nd nd nd,nd,3/9 (4.45)
R34H Q95F L100D,1.04 1.28 1.52,1.28,1/9 (3.15)
S58R H98N R99N,4.10 3.02 4.34,3.82,2/9 (3.91)
S25N W56E S62W,-0.34 0.02 -0.25,-0.19,1/9 (5.17)
S26E R34A K36A,0.41 0.79 0.78,0.66,1/9 (2.35)
S25I N35F W56L,nd nd nd,nd,0/9
N35K L100W L102D,4.05 nd 3.53,3.79,0/9
S33N R60W,nd nd nd,nd,1/9 (3.33)
Q27C Q96K R99C,3.24 3.99 nd,3.62,1/9 (4.77)
S28C L102C,4.90 4.30 nd,4.60,5/9 (4.70)
N35F Y97Q R99C,nd nd nd,nd,0/9
A40K S58E S103R,nd 3.15 nd,3.15,0/9
S26Q V29G L102F,0.29 0.64 0.50,0.47,2/9 (4.96)
V29P A40Q R99V,nd nd nd,nd,0/9
S28I S38F L102F,nd nd nd,nd,1/9 (4.97)
S28E E32L S62F,5.08 2.01 1.88,2.99,0/9
Q96C L100V L102D,1.65 1.78 1.47,1.63,4/9 (4.27)
Y31K V39R R60N,nd nd nd,nd,1/9 (3.08)
S28K S58L,3.11 1.84 2.26,2.40,2/9 (4.41)
R34H Q96S,1.92 1.84 2.12,1.96,0/9
A57H E61Q Y97G,nd nd nd,nd,1/9 (5.24)

The closing 4 entries, repeated:

changes	replicates, log10 nM	log10 Kd (nM), mean	control signals
Y31K V39R R60N	nd nd nd	nd	1/9 (3.08)
S28K S58L	3.11 1.84 2.26	2.40	2/9 (4.41)
R34H Q96S	1.92 1.84 2.12	1.96	0/9
A57H E61Q Y97G	nd nd nd	nd	1/9 (5.24)